Laboratory results published in paper PMC7358525, “Characterization of PF-6142, a Novel, Non-Catecholamine Dopamine Receptor D1 Agonist, in Murine and Nonhuman Primate Models of Dopaminergic Activation” (Frontiers in Pharmacology, 2020).

Tested on: prepulse inhibition of startle
Assay: Mouse prepulse inhibition (PPI) and acoustic startle
Assay type: in vivo
Conditions: risperidone 0.1-0.56 mg/kg
Protocol: Drug and behaviorally naïve adult male C57BL/6J mice (9–11 weeks of age; n=8 per dose group) were used for PPI experiments. Subjects were tested individually in SR-Lab acoustic startle chambers (San Diego Instruments, San Diego CA, USA) equipped with a restrainer mounted atop a piezoelectric accelerometer which measured transduced movement in response to the presentation of audio stimuli presented through a speaker mounted 20 cm above the animal. Subjects were acclimated to an anteroom adjacent to the testing room at minimum 60 min prior to testing. […] Data were also recorded for no stimulus values to evaluate background level of response. […] Percent PPI was calculated for each individual subject as the relative change in the 120 dB startle response in the presence of each prepulse intensity using the formula: 100-((prepulse-pulse)/pulse)*100 as previously described ([Ralph-Williams et al., 2003]).
The experiment was analyzed using a two-way mixed model ANOVA (lme4 library in R software). […]

Compound: Cc1nc2n(c(=O)c1CCN1CCC(c3noc4cc(F)ccc34)CC1)CCCC2 [risperidone, reference compound]
- acoustic startle responses (120 dB): dose dependently and significantly reduced
